Only a part is listed here, and it is no random draw. Calls of active or inactive are those of the source.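 How the source made its calls: active means inhibition above 20%; inactive means inhibition below 20%.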

The values below come from PubChem BioAssay AID834 (PCMD, 2007).

The nature of this assay: clotrimazole potentiators killing Candida biofilms, primary screen, with clotrimazole, Alamar Blue (AID 834).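 Further: preformed 24 hr biofilms exposed to compound for 48 hr; 0% = biofilm without compound and 100% = blank killed by clotrimazole plus chlorhexidine.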 Conditions: C. albicans biofilm + clotrimazole, at 6 µM, hits give high values.
Take `O=P1(Nc2nc3ccc(Cl)cc3s2)COc2ccccc2O1` (configuration not stated): the inhibition is inactive: -3.88%. As for `COC(=O)c1cc2c(s1)N=C(c1ccccc1)N(C)P2(=O)N1CCOCC1` (configuration not stated), the figure is inactive: 5.51%; as for `O=C(OC1CN2CCC1CC2)c1cccc(Cl)c1` (configuration not stated), inactive: 1.33%.

On to `c1nnnn1CCn1cnnn1`, for which the inhibition is inactive: 4.26%.

As for `O=P(Nc1nccs1)(c1ccccc1)c1ccccc1`, the inhibition was inactive: 7.31%. Then `CCc1nc2c(n1)c1c(non1O)c1c2no[n+]1[O-]`, with inactive: 5.55%. Then `O=[N+]([O-])c1cccc2n[nH]nc12`, with inactive: 6.69%; and `CC1CCN(C(=O)Oc2c(Cl)cc(Cl)c3cccnc23)CC1`, with inactive: 6.63%.

Regarding `CCOP(=O)(Nc1ccccc1)OCC`, the inhibition was inactive: 3.77%.

Consider `CN1CCCC(OC(=O)C(c2ccccc2)c2ccccc2)C1` (configuration not stated), for which the inhibition is inactive: 7.6%. In the case of `Oc1ccccc1CNc1ccccn1`, the inhibition was inactive: 5.16%.

`Cc1c2non([O-])c-2c(C)[n+](=O)[n+]1[O-]`: the inhibition is inactive: 9.34%. As for `O=C(OC1CN2CCC1CC2)C12CC3CC(CC(C3)C1)C2` (configuration not stated), the figure is inactive: 2.24%; as for `ClCCSc1nnc(-c2cccnc2)o1`, inactive: -1.01%. Then `O=C(COc1ccccc1)OC1CN2CCC1CC2` (configuration not stated), with inactive: -3.47%; and `COP1(=S)c2c(C)nn(CCC#N)c2N=C(c2ccc(F)cc2)N1C` (configuration not stated), with inactive: 4.13%; and `CCC(C)N(CC(C)C)C(=S)SC(NC(C)=O)C(Cl)(Cl)Cl` (configuration not stated), with inactive: -5.28%. As to `Clc1n[nH]nc1-c1nn[nH][15n]1`, the inhibition is inactive: 5.69%.

As to `O=P1(Nc2ccccn2)COc2ccccc2OC1`, the inhibition was inactive: 6.96%. As for `CC1(CBr)Cn2c(nc3ccccc3c2=O)S1` (configuration not stated), the figure is inactive: 8.26%; as for `Cc1nn(-c2ccccc2)c2c1P(=O)(N1CCOCC1)N(C)C(c1ccccc1)=N2` (configuration not stated), inactive: 9.45%. In the case of `O=P1(Nc2ccc(Br)cn2)COc2ccccc2OC1`, the inhibition was inactive: -5.21%. As for `Cc1ccc(OCC(=O)OC2CN3CCC2CC3)cc1` (configuration not stated), the figure is inactive: 9.4%; as for `O=P1(Nc2ncccn2)COc2ccccc2OC1`, inactive: -0.27%. In the case of `CCOP1(=S)c2c(C)nn(CCC#N)c2N=C(c2ccccc2F)N1C` (configuration not stated), the inhibition was inactive: 0%. As for `CCOP1(=S)c2c(C)nn(CCC#N)c2N=C(c2ccc(F)cc2)N1C` (configuration not stated), the figure is inactive: 9.07%; as for `Cc1cccc(OCC(=O)OC2CN3CCC2CC3)c1` (configuration not stated), inactive: 9.62%.
